From PubChem BioAssay AID504692 (The Scripps Research Institute Molecular Screening Center, 2011)
The list shows a part of the results, in another mix than the full data. Calls of active or inactive are those of the source. Cut-off read from the data, not from the text of the source: active = activation mostly above about 9.5% (no sharp cut-off); inactive = mostly below about 7.6%.

The chains behind the UniProt entries cited, without tags or fusion partners.
UniProt P47898, whole entry, looked up: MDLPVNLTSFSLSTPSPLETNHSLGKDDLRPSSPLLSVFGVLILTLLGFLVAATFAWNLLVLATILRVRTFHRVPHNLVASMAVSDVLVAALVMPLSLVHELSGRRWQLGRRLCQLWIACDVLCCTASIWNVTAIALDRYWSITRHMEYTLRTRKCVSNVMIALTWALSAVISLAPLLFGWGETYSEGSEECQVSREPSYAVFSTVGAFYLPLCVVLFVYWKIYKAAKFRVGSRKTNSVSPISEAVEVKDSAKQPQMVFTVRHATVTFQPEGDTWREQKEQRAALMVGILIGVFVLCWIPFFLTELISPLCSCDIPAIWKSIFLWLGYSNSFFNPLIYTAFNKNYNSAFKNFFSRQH

target: 5-hydroxytryptamine receptor 5A (Homo sapiens) (UniProt P47898); assay: activation of human 5-HT5A receptor – cell-based, luminescence, full-deck HTS, counter-screen for OPRM1-OPRD1 heterodimer agonist project, primary screen (AID 504692); settings: HTR5A agonist assay, at 9.3 µM, hits give high values;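 note: 0% = cells with vehicle only and 100% = reference agonist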

| SMILES | activation |
| --- | --- |
| c1ccc2c(c1)nc1n2CCN1CCNC1CCCCC1 | inactive: -7.51% |
| COc1cc(NC(=O)Cn2cnc3c(NCc4ccccc4)ncnc32)cc(OC)c1OC | inactive: 1.92% |
| Cc1cc2ncn(C3CC(=O)N(Cc4ccccc4)C3=O)c2cc1C (stereo not given) | inactive: 1.06% |
| O=[N+]([O-])c1cc(Oc2ccc([N+](=O)[O-])cc2C(F)(F)F)cc([N+](=O)[O-])c1 | inactive: -0.5% |
| CN(c1ccccc1)S(=O)(=O)c1cccc(NC(=O)Cn2cnc3c2c(=O)n(C)c(=O)n3C)c1 | inactive: 2.55% |
| Cc1ccc(CNC(=O)Cn2cnc3c(OCc4ccccc4)ncnc32)o1 | inactive: 0.67% |
| CN(C)CCn1c(=N)n(CC(O)c2ccc(Cl)c(Cl)c2)c2ccccc21 (stereo not given) | inactive: 5.72% |
| Nc1nonc1-c1nc2ccccc2n1CC(=O)N1CCN(c2ccc(F)cc2)CC1 | inactive: 0.64% |
| COc1cc(NC(=O)[C@@H](NC(=O)N2CCn3c2nc2ccccc23)C(C)C)cc(OC)c1 | inactive: 0.14% |
| COC(=O)[C@H](Cc1ccc(O)cc1)NC(=O)Cn1cnc2c(SC)nc(N)nc21 | inactive: 6.38% |
| CC(C)[Si]1(C(C)C)OCC2OC(n3cnc4c(N)ncnc43)C(N)C2O[Si](C(C)C)(C(C)C)O1 (stereo not given) | inactive: 5.89% |
| N=c1n(CCN2CCCCC2)c2ccccc2n1CC(O)c1ccc(Cl)c(Cl)c1 (stereo not given) | inactive: -4.36% |
| NC(=O)CC(NC(=O)c1cccc(Br)c1)c1ccc(NC2CCN(Cc3ccccc3)CC2)c([N+](=O)[O-])c1 (stereo not given) | inactive: -1.41% |
| CC(C)NC(=O)CSc1nc2ccccc2n1CC(=O)N(C(C)C)C(C)C | inactive: 0.16% |
| Cc1ccc(S(=O)(=O)Nc2ccc(Cl)cc2)cc1NC(=O)Cn1cnc2c1c(=O)n(C)c(=O)n2C | inactive: 5.69% |
| Cc1ccc2c(c1)C1CN(C)CCC1N2C(=O)c1ccco1 (stereo not given) | inactive: 0.85% |
| O=C(Cn1c(NCCO)nc2ccccc21)Nc1cccc(S(=O)(=O)N2CCCC2)c1 | inactive: 7.02% |
| CCN(CC)c1ccc(CNc2nc3ccccc3n2CCN2CCOCC2)cc1 | inactive: -0.67% |
| O=C(O)CCc1nn2c3ccccc3n(CCN3CCCCC3)c2nc1=O | inactive: 1.21% |
| Cc1cnc(NC(=O)Cn2cnc3c2c(=O)n(C)c(=O)n3C)s1 | inactive: -1.96% |
| Cc1ccc(Cn2nnnc2CN2CCC(n3nnc4cc(C(F)(F)F)ccc43)CC2)cc1 | inactive: -0.46% |
| Cc1ccc(-c2csc(NCCn3c(-c4ccncc4)nc4cc(C(F)(F)F)ccc43)n2)cc1 | inactive: -1.3% |
| Nc1nonc1-c1nc2ccccc2n1CC(=O)NC1CCCC1 | inactive: -2.54% |
| CSc1nc(N)nc2c1ncn2CC(=O)NCc1ccc2c(c1)OCO2 | inactive: 4.66% |
| CC(C)(C)NC(=O)Cn1c(SCC(=O)NC2CC2)nc2ccccc21 | inactive: 12.2% |
| O=C1C2CCCCC2C(=O)N1c1ccc(NC2CCN(Cc3ccccc3)CC2)c([N+](=O)[O-])c1 (stereo not given) | inactive: -4.24% |
| O=C(Cn1cnc2c(NCc3ccccc3)ncnc21)NCCCN1CCCC1=O | inactive: -1.63% |
| Cn1c(=O)c2c(nc(Cl)n2CC(=O)N2CCCCC2)n(C)c1=O | inactive: 3.45% |

| SMILES | activation |
| --- | --- |
| Cc1cc(=O)[nH]c(N[N+](=O)[O-])n1 | inactive: -2.06% |
| CCn1cc(C(=O)N2CCn3c(nc4ccccc43)C2)c(=O)c2ccc(C)nc21 | inactive: 13.5% |
| Cn1c(=O)c2c(ncn2CC(=O)Nc2nccs2)n(C)c1=O | inactive: 2.9% |
| c1ccc2c(c1)ncn2CCN1CCCCC1 | inactive: -2.19% |
| Cc1ccccc1Oc1ccc2c(c1)[C@@H]1C[C@H](N(C)C(=O)c3ccc(C#N)cc3)[C@H]([C@H](C)O)C(=O)N1CC2 | inactive: -3.52% |
| O=C(Cn1cnc2ccccc21)NC(c1ccccc1)c1ccccc1 | inactive: 0.1% |
| NC(=O)CC(NC(=O)Cc1ccc(Br)cc1)c1ccc(NC2CCN(Cc3ccccc3)CC2)c([N+](=O)[O-])c1 (stereo not given) | inactive: 2.23% |
| NC(=O)CS(=O)(=O)c1nc2ccccc2n1CC(=O)N1CCCCC1 | inactive: 9.63% |
| Cc1ccc(S(=O)(=O)N2CCCCC2)cc1NC(=O)Cn1cnc2c1c(=O)n(C)c(=O)n2C | inactive: -5.24% |
| O=C(CCCCCNC(=O)N1CCn2c1nc1ccccc12)N[C@@H](C(=O)O)c1ccccc1 | inactive: 3.86% |
| Cc1c2c(nc3ccccc13)SC(C(Cl)Cl)C2 (stereo not given) | inactive: -3.31% |
| COc1ccc2nc(NP(=O)(c3ccccc3)c3ccccc3)sc2c1 | inactive: -3.34% |
| Cn1c(=O)[nH]c(=O)c2c1nc(CN1CCN(c3ccc(F)cc3)CC1)n2CCN1CCOCC1 | inactive: 0.06% |
| CCCn1c(=O)[nH]c(=O)c2c1nc(-c1ccc3c(c1)OCCO3)n2CCN1CCOCC1 | inactive: -2.31% |
| CC(C)N(C(=O)Cn1c(-c2ccccc2Cl)nc2ccccc21)c1ccccc1 | inactive: 0.31% |
| Cn1c(=O)[nH]c(=O)c2c1nc(N1CCCCCC1)n2CCN1CCCCCC1 | inactive: 1.01% |
| Cc1ccc(/C=N/NC(=O)Cn2cnc3ccccc32)o1 | inactive: 8.34% |
| Cc1ccc(NC(=O)Cn2cnc3c(OCc4ccccc4)ncnc32)cc1C | inactive: -1.41% |
| CSCC[C@H](NC(=O)N1CCn2c1nc1ccccc12)C(=O)NCc1ccccc1 | inactive: -3.06% |
| C(=N\c1nc2ccccc2n1CCN1CCCCC1)/c1cccs1 | inactive: 3.92% |
| CCOC(=O)c1cccc(NC(=O)Cn2c(CC(=O)NC)nc3ccccc32)c1 | inactive: -3.17% |
| COc1cc(I)ccc1[As](=O)(O)O | inactive: -2.23% |
| c1ccc(CN2CCC(Nc3nc(-c4ccccc4)nc4ccccc34)CC2)cc1 | inactive: 8.91% |
| CC(O)CNc1nc2ccccc2n1CC(=O)N1CCN(Cc2ccccc2)CC1 (stereo not given) | inactive: -1.66% |
| CCCCNc1nc2ccccc2n1CC(=O)Nc1c(C)cccc1CC | inactive: 3.04% |
| COc1cccc(NC(=O)[C@@H](NC(=O)N2CCn3c2nc2ccccc23)C(C)C)c1 | inactive: 4.01% |
| O=P1(N(CCCl)CCCl)OCCCN1CCCl (stereo not given) | inactive: -1.59% |
